Only a part is listed here, and it is no random draw. Results with a measured potency or affinity are listed apart. Some of these compounds have results that are not shown, active ones among them. Activity calls are given as the source filed them. Cut-off read from the data, not from the text of the source: active = inhibition above about 50%; inactive = the rest.
biological target: Kappa-type opioid receptor (Homo sapiens) (UniProt P41145); experiment: kappa opioid receptor blockers – cell-based, luminescence, uHTS (AID 1778); settings: KOR beta-arrestin recruitment, antagonist mode, at 10 µM, stronger effect = higher value

Protein sequences, listed by entry. Tags and fused reporters are not part of them.
UniProt P41145, whole entry: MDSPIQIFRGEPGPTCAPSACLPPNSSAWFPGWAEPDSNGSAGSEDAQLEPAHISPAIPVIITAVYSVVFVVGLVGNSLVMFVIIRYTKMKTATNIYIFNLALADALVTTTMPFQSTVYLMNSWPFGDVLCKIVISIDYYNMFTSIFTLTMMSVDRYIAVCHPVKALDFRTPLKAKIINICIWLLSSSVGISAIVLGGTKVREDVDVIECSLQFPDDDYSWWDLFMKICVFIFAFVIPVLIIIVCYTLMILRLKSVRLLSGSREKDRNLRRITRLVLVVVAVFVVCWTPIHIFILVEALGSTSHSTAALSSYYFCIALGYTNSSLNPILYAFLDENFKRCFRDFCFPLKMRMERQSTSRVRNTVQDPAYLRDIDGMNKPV

Row | Compound | inhibition
1 | COc1cc(C(=O)NCC2(N(C)C)CCCCC2)c([N+](=O)[O-])cc1OC | inactive: -16.5%
2 | CN(C)C1(CNC(=O)c2ccc(Br)cc2)CCCCC1 | inactive: 6.3%
3 | O=C(NCC1(N2CCCCC2)CCCCC1)c1cccc(Cl)c1 | inactive: 19.2%
4 | COc1ccc(Cl)cc1C(=O)NCC1(N(C)C)CCCCC1 | inactive: -15.7%
5 | COc1cccc(C(=O)NCC2(N3CCCCC3)CCCCC2)c1 | inactive: -15%
6 | O=C(OC1CN2CCC1CC2)C(CO)(c1ccccc1)c1ccccc1 (stereo not drawn) | inactive: 27.9%
7 | CC(C)Oc1ccc(C(=O)NCC2(N(C)C)CCCCC2)cc1 | inactive: 2.6%
8 | CN(C)c1cccc(C(=O)NCC2(N(C)C)CCCCC2)c1 | inactive: -4.6%
9 | COc1ccc(Br)c(C(=O)NCC2(N3CCCCC3)CCCCC2)c1 | inactive: -3%
10 | CN1[C@@H]2CC[C@H]1CC(OC(=O)C(O)(c1ccccc1)c1ccccc1)C2 (stereo partly drawn) | inactive: -0.1%
11 | O=C(NCC1(N2CCCCC2)CCCCC1)c1cc([N+](=O)[O-])ccc1Cl | inactive: 0.3%
12 | Cc1ccc(C(=O)NCC2(N3CCCCC3)CCCCC2)cc1 | inactive: -19.7%
13 | COc1cc(SC)ccc1C(=O)NCC1(N(C)C)CCCCC1 | inactive: -19.2%
14 | CCN(CC)CC(C)C(C)OC(=O)C(O)(c1ccccc1)c1ccccc1 (stereo not drawn) | inactive: 18%
15 | CC(C)N1C(=O)CC2(CCN(CCOC(=O)C(O)(c3ccccc3)c3ccccc3)CC2)C1=O | inactive: -8.8%
16 | CN(C)c1ccc(C(=O)NCC2(N(C)C)CCCCC2)cc1 | inactive: 19.9%
17 | CN(C)C1CCCC1OC(=O)C(O)(c1ccccc1)c1ccccc1 (stereo not drawn) | inactive: -10.7%
18 | Cc1ccccc1C(=O)NCC1(N2CCCCC2)CCCCC1 | inactive: -12.7%
19 | COc1ccc(C(=O)NCC2(N(C)C)CCCCC2)cc1 | inactive: -18.2%
20 | O=C(NCC1(N2CCCCC2)CCCCC1)c1cccc(Br)c1 | inactive: -9.8%
21 | CCN1CCCC(OC(=O)C2(O)c3ccccc3C=Cc3ccccc32)C1 (stereo not drawn) | inactive: -31.6%
22 | Cc1cc(C(=O)NCC2(N3CCCCC3)CCCCC2)ccc1[N+](=O)[O-] | inactive: -19.5%
23 | O=C(NCC1(N2CCCCC2)CCCCC1)c1cc(F)c(F)cc1Cl | inactive: -6.5%

Reference: PubChem BioAssay AID1778 (Sanford-Burnham Center for Chemical Genomics, 2009)
